In ChEMBL document CHEMBL3763031, “Design, synthesis and biological evaluation of monobactams as antibacterial agents against gram-negative bacteria” (2016):

How the values were obtained:
Pseudomonas aeruginosa [1] = conditions: PAO1
Pseudomonas aeruginosa [2] = conditions: 27853

Sequence: GENTAMICIN
- MIC (Pseudomonas aeruginosa [1]): 0.5 µg/mL
- MIC (Pseudomonas aeruginosa [2]): 0.5 µg/mL
